pIC50: −log10 of the molar value.
Assays:
LS174T [1] = experiment: 14 d colony growth assay, LS174T; assay type: cell-based, human; conditions: 350 nM, mean (range), n = 2
LS174T [2] = experiment: 96 hour proliferation GI50, LS174T; conditions: read-out: 96 hour GI50
SW837 [3] = experiment: 14 d colony growth assay, SW837; assay type: cell-based, human; conditions: 350 nM, mean (range), n = 2
LS174T [4] = experiment: 24 hour TCF/LEF reporter assay, LS174T; assay type: cell-based, human; conditions: read-out: 24 hour TCF/LEF Reporter assay IC50, mean (s.d.), n = 4
LS513 [5] = experiment: 96 hour proliferation GI50, LS513; conditions: read-out: 96 hour GI50
LS180 [6] = experiment: 24 hour TCF/LEF reporter assay, LS180; assay type: cell-based, human; conditions: read-out: 24 hour TCF/LEF Reporter assay IC50, mean (s.d.), n = 4
SW837 [7] = experiment: 24 hour TCF/LEF reporter assay, SW837; assay type: cell-based, human; conditions: read-out: 24 hour TCF/LEF Reporter assay IC50, mean (s.d.), n = 4
SW620 = experiment: 14 d colony growth assay, SW620; assay type: cell-based, human; conditions: 350 nM, mean (range), n = 2
COLO205 [8] = experiment: 24 hour TCF/LEF reporter assay, COLO205; assay type: cell-based, human; conditions: read-out: 24 hour TCF/LEF Reporter assay IC50, mean (s.d.), n = 4
DLD1 [9] = experiment: 14 d colony growth assay, DLD1; assay type: cell-based, human; conditions: 350 nM, mean (range), n = 2
HT29 [10] = experiment: 96 hour proliferation GI50, HT29; conditions: read-out: 96 hour GI50
COLO205 [11] = experiment: 96 hour proliferation GI50, COLO205; conditions: read-out: 96 hour GI50
DLD1 [12] = experiment: 96 hour proliferation GI50, DLD1; conditions: read-out: 96 hour GI50
LS513 [13] = experiment: 14 d colony growth assay, LS513; assay type: cell-based, human; conditions: 350 nM, mean (range), n = 2
DLD1 [14] = experiment: 24 hour TCF/LEF reporter assay, DLD1; assay type: cell-based, human; conditions: read-out: 24 hour TCF/LEF Reporter assay IC50, mean (s.d.), n = 4
7dF3 = 7dF3 inducible WNT-pathway luciferase reporter; conditions: read-out: 7dF3 IC50, mean ± s.d. or *± range
CDK8 = CDK8 (Homo sapiens, UniProt P49336); experiment: CDK8 binding (Lanthascreen binding competition / reporter displacement assay); conditions: read-out: CDK8 IC50; mean ± s.d. (at least three) or *± range (two repeats)
SW948 [15] = experiment: 96 hour proliferation GI50, SW948; conditions: read-out: 96 hour GI50
RKO [16] = experiment: 96 hour proliferation GI50, RKO; conditions: read-out: 96 hour GI50
SW948 [17] = experiment: 14 d colony growth assay, SW948; assay type: cell-based, human; conditions: 350 nM, mean (range), n = 2
HT29 [18] = experiment: 14 d colony growth assay, HT29; assay type: cell-based, human; conditions: 350 nM, mean (range), n = 2
LS180 [19] = experiment: 14 d colony growth assay, LS180; assay type: cell-based, human; conditions: 350 nM, mean (range), n = 2
RKO [20] = experiment: 24 hour reporter assay, RKO negative control (EEF1A1 promoter-reporter); assay type: cell-based, human; conditions: read-out: 24 hour TCF/LEF Reporter assay IC50, WNT-independent EEF1A1 promoter-reporter
RKO [21] = experiment: 14 d colony growth assay, RKO; assay type: cell-based, human; conditions: 350 nM, mean (range), n = 2
p-STAT1^SER727 = experiment: Inhibition of STAT1 SER727 phosphorylation in cells (target-engagement biomarker); conditions: read-out: p-STAT1^SER727 IC50; mean ± s.d. or *± range
CDK19 = CDK19 (Homo sapiens, UniProt Q9BWU1); experiment: CDK19 reporter displacement assay; assay type: binding; conditions: read-out: CDK19 IC50; mean ± s.d. (at least three) or *± range (two repeats)

By UniProt entry, the sequences of proteins in these tests, tags left out.
UniProt P49336, whole entry: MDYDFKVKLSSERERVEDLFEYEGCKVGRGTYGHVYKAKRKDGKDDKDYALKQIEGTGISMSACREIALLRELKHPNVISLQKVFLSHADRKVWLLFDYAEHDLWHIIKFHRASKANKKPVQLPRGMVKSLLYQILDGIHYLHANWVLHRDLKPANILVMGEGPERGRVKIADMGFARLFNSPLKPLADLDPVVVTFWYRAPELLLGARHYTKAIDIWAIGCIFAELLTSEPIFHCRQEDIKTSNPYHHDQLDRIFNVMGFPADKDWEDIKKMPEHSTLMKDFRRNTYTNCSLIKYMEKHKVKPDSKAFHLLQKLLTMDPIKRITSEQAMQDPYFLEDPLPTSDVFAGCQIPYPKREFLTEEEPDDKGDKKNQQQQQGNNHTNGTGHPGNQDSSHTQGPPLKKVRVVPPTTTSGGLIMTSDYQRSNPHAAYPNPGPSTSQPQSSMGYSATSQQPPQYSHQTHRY
UniProt Q9BWU1, whole entry: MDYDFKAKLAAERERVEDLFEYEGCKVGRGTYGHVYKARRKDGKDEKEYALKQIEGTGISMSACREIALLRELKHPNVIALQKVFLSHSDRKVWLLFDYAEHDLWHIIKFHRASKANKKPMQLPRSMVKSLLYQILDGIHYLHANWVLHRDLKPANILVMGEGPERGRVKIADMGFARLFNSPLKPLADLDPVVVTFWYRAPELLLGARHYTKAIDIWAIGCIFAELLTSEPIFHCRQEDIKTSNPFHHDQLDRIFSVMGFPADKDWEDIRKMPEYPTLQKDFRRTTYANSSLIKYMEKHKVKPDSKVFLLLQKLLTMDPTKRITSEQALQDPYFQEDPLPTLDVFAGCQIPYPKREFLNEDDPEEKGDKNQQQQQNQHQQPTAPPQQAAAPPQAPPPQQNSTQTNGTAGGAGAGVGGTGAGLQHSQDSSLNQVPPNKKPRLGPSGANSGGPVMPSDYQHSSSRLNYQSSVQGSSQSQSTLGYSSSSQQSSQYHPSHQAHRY
UniProt P24863, whole entry partner: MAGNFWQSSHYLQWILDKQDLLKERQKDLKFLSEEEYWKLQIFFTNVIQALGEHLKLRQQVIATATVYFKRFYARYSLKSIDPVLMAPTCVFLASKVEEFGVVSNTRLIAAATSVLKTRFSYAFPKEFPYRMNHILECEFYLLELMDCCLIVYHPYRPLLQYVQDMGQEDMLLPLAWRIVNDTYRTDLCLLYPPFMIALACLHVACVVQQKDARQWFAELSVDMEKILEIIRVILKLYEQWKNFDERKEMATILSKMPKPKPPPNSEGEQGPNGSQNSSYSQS

SMILES | 14 d colony growth (relative to control) (LS174T [1]) | GI50 (LS174T [2]) [nM] | 14 d colony growth (relative to control) (SW837 [3]) | pIC50 (LS174T [4]) | GI50 (LS513 [5]) [nM] | pIC50 (LS180 [6]) | pIC50 (SW837 [7]) | 14 d colony growth (relative to control) (SW620) | pIC50 (COLO205 [8]) | 14 d colony growth (relative to control) (DLD1 [9]) | GI50 (HT29 [10]) [nM] | GI50 (COLO205 [11]) [nM] | GI50 (DLD1 [12]) [nM] | 14 d colony growth (relative to control) (LS513 [13]) | pIC50 (DLD1 [14]) | pIC50 (7dF3) | pIC50 (CDK8) | GI50 (SW948 [15]) [nM] | GI50 (RKO [16]) [nM] | pIC50 (p-STAT1^SER727) | other results
Cc1n[nH]c2ncc(C(=O)N3CCC[C@@H]3c3ccc(Cl)cc3)cc12 | 0.93 (0.11) | > 30000 | 0.95 (0.09) | < 4.52 | > 30000 | < 4.52 | < 4.52 | 0.96 (0.10) | < 4.52 | 0.98 (0.01) | > 30000 | > 30000 | > 30000 | 1.23 (0.05) | < 4.52 | 5.68 | 6.23 | > 30000 | > 30000 | – | 14 d colony growth (relative to control) (SW948 [17]): 0.74 (0.03); 14 d colony growth (relative to control) (HT29 [18]): 1.13 (0.17); 14 d colony growth (relative to control) (LS180 [19]): 0.74 (0.11); pIC50 (RKO [20]): < 4.52; 14 d colony growth (relative to control) (RKO [21]): 0.96 (0.10)
O=C1NCCC12CCN(c1c(Cl)cncc1-c1ccc3cccnc3c1)CC2 | 0.93 (0.02) | > 30000 | 0.95 (0.03) | 5.59 | > 30000 | 5.67 | 6.11 | 0.82 (0.04) | 6.16 | 0.89 (0.03) | > 30000 | > 30000 | > 30000 | 1.22 (0.06) | 5.21 | – | – | > 30000 | > 30000 | 6.48 | 14 d colony growth (relative to control) (SW948 [17]): 1.02 (0.01); 14 d colony growth (relative to control) (HT29 [18]): 1.06 (0.14); 14 d colony growth (relative to control) (LS180 [19]): 1.13 (0.63); pIC50 (RKO [20]): < 4.52; 14 d colony growth (relative to control) (RKO [21]): 0.94 (0.04)
Cc1n[nH]c2ccc(-c3cncc(N[C@@H](C(N)=O)c4ccccc4)c3)cc12 | – | – | – | – | – | – | – | – | – | – | – | – | – | – | – | 9.70 | 8.74 | – | – | 8.89 | pIC50 (CDK19): 8.51
Brc1c(Br)c2c3c(nc(N4CCNCC4)n3CCC2)c1Br | – | – | – | – | – | – | – | – | – | – | – | – | – | – | – | 7.33 | 7.84 | – | – | 6.85 | pIC50 (CDK19): 8.09

Reference: article PMC5224920, “Assessing the mechanism and therapeutic potential of modulators of the human Mediator complex-associated protein kinases” (eLife, 2016)
